Kd, koff and kon data for one molecule are collected here from patent publication US20250154261A1 (published 2025).

Chains of the proteins cited; added tags and fusions are not shown. Residues count along the entry.
UniProt P20138, 18-259 S128N: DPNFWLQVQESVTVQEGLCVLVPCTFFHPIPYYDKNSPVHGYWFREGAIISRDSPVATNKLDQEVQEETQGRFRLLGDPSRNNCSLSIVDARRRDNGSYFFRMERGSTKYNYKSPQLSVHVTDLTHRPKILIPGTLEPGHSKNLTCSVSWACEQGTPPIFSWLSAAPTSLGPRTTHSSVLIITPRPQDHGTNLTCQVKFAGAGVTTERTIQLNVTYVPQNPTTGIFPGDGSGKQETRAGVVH

The test addresses Human CD33 S128N (human, UniProt P20138 18-259). In words: SPR captured Fab.

B1: ADI-10173 Fab (Fab, V domains shown)
VH: QVQLVQSGAEVKKPGASVKVSCKASGYTFTSYYMHWVRQAPGQGLEWMGIINPSGGSTTYAQKFQGRVTMTRDTSTSTVYMELSSLRSEDTAVYYCAREAADGFVGERYFDLWGRGTLVTVSS
VL: not shown
notes: Fab fragment; also called Ab22
One may read the Kd as a measure of binding affinity in units of concentration. Read a high Kd as weaker binding. A word on the koff: it is the rate constant with which the complex falls apart. Lower therefore signals slow dissociation. The kon is the second-order rate constant of association. A low value points to slow association. Take B1: the equilibrium dissociation constant (Kd) was 187 nM, the koff came to 0.0342 s⁻¹ and the kon was 183000 M⁻¹ s⁻¹.
